Results taken from patent US20050143392A1, “Chrysogenazine obtained from fungus Penicillium chrysogenum having antibacterial activity” (Council of Scientific & Industrial Research, priority 2003, published 2005).

Test system: Vibrio cholerae MCM B-322
Experiment: Antibacterial activity, simple disc diffusion (agar diffusion) technique
Conditions: agar plates; chrysogenazine 5-30 mcg/disc; penicillin 10 units/disc, amphicillin 10 mcg/disc, streptomycin 10 mcg/disc

With `CC(C)=CCc1[nH]c2ccccc2c1C=C1NC(=O)C(C)NC1=O` (centres unmarked) [chrysogenazine, 3,1′-didehydro-3[2″(3′″,3′″-dimethyl-prop-2-enyl)-3″-indolylmethylene]-6-methylpiperazine-2,5-dione] the zone of inhibition was 4-5 mm.

`CC1(C)S[C@@H]2[C@H](NC(=O)[C@H](N)c3ccccc3)C(=O)N2[C@H]1C(=O)O` [amphicillin] was tested, and the zone of inhibition was 0 mm.
